Measurements taken from patent US9504675B2, “Alpha-ketoheterocycles and methods of making and using” (The Scripps Research Institute, priority 2011, dated 2016).

Test system: mice with CCI neuropathic pain
Assay: Chronic constriction injury (CCI) of the sciatic nerve: mechanical (von Frey) and cold (acetone) allodynia
Format: in vivo, mouse (C57BL/6)
Settings: 50 mg/kg p.o., 10 days after CCI, vs vehicle
Method: Surgery was performed as follows. Briefly, the right hind leg of male C57BL/6 mice was shaved and swabbed with betadine solution and ethanol. Posterior to the femur, an incision was made and the sciatic nerve was visualized and isolated, following muscle separation. The nerve was ligated twice with 5-0 (1.0 metric) black silk braided suture (Surgical Specialties Corporation, Reading, Pa.). The surrounding muscle and skin were then sutured with 6-0 nylon. Mice were recovered in a heated cage and observed for approximately 2 h before being returned to the vivarium.
Allodynia was initially tested 10 days after surgery. Male C57BL/6 mice were habituated to the test apparatus for 2 h on the 2 days prior to testing. […] Mechanical allodynia was assessed with von Frey filaments (North Coast Medical, Morgan Hill, Calif.), using the “up-down” method. […] Once a positive response was detected, sequentially lighter-weight filaments were used to assess paw withdrawal threshold. […] Total time lifting or clutching each paw was recorded, with a maximum time of 20 s.
Data Analyses: Behavioral data were analyzed using a two-way mixed factorial analysis of variance (ANOVA) for each paw, with drug treatment as the between subjects measure, and time as the within subjects measure. […]

O=C(c1ncc(-c2ccccn2)o1)C1CCc2cc(Oc3ccccc3)ccc2C1 (centres unmarked) [Compound 12, (6-Phenoxy-1,2,3,4-tetrahydronaphthalen-2-yl)(5-(pyridin-2-yl)oxazol-2-yl)methanone]
cold allodynia (acetone-induced), paws ipsilateral to CCI surgery: significantly attenuated
mechanical allodynia (von Frey), paws ipsilateral to CCI surgery: significantly attenuated
